Experimental data taken from patent US12528818B2, “Compositions and methods for inhibition of RAS” (Leidos Biomedical Research, Inc., priority 2021, dated 2026).

What was measured:
[1] = molecular target: T1, GTP-loaded KRAS4b (amino acids 1-169) G12C/C118S protein (Homo sapiens, UniProt P01116, C118S/G12C); assay: Covalent cysteine 12 modification by MALDI-TOF MS, GTP-loaded KRAS G12C; assay type: biochemical; settings: 15 minutes reaction time, compound 95 or later using 1 μM proteins
T1 construct: KRAS4b (amino acids 1-169) G12C/C118S protein; made in house

[2] = molecular target: GDP-loaded KRAS4b (amino acids 1-169) G12C/C118S protein (Homo sapiens, UniProt P01116, C118S/G12C); assay: Covalent cysteine 12 modification by MALDI-TOF MS, GDP-loaded KRAS G12C; assay type: biochemical; settings: 15 minutes reaction time
[3] = molecular target: GppNHp-loaded KRAS4b (amino acids 1-169) G12C/C118S protein (Homo sapiens, UniProt P01116, C118S/G12C); assay: Covalent cysteine 12 modification by MALDI-TOF MS, GppNHp-loaded KRAS G12C; assay type: biochemical; settings: 15 minutes reaction time
[4] = molecular target: Avi-KRAS G12C (1-169) GppNHp/RAF1 RBD-3xFLAG (52-151) (Homo sapiens, UniProt P01116, G12C); assay: biochemical; settings: Raf1-GppNHp-KRAS G12C disruption, Raf1 RBD-KRAS G12C-GppNHp disruption assay IC50
[5] = compound 95 or later using 1 μM proteins
[6] = compounds 94 or before using 5 μM proteins

SMILES | GTP-KRAS G12C percent of modification [1] | GDP-KRAS G12C percent of modification [2, 5] | GppNHp-KRAS G12C percent of modification [3, 5] | IC50 [4] | GDP-KRAS G12C percent of modification [2, 6] | GppNHp-KRAS G12C percent of modification [3, 6]
C=CC(=O)N1CCC(N(C)c2nc(OC)nc3c(F)c(-c4ccc(F)c5sc(N)c(C#N)c45)ccc23)[C@H]1C (stereo partly drawn) [Compound 461] | D (percent of modification <10%) | C (10%≤percent of modification <50%) | D (percent of modification <10%) |  |  | 
C=CC(=O)N1CCC(N(C)c2ncnc3c(F)c(-c4ccc(F)c5sc(N)c(C#N)c45)ccc23)[C@H]1C (stereo partly drawn) [Compound 462] | D (percent of modification <10%) | C (10%≤percent of modification <50%) | D (percent of modification <10%) |  |  | 
C=CC(=O)N1CC[C@@H](N(C)c2nc(OC[C@@]34CCCN3C[C@H](F)C4)nc3c(F)c(-c4ccc(F)c5sc(N)c(C#N)c45)c(C(F)(F)F)cc23)[C@H]1C [Compound 381, 4-(4-(((2R,3R)-1-acryloyl-2-methylpyrrolidin-3-yl)(methyl)amino)-8-fluoro-2-(((2R,7aS)-2-fluorotetrahydro-1H-pyrrolizin-7a(5H)-yl)methoxy)-6-(trifluoromethyl)quinazolin-7-yl)-2-amino-7-fluorobenzo[b]thiophene-3-carbonitrile] | B (50≤percent of modification <70%) |  | A (percent of modification ≥70%) |  |  | 
C=CC(=O)N1CCC(N(C)c2nc(OC[C@@H]3CCCN3CC)nc3c(F)c(-c4ccc(F)c5sc(N)c(C#N)c45)c(Cl)cc23)[C@H]1C (stereo partly drawn) [Compound 464] | C (10%≤percent of modification <50%) | A (percent of modification ≥70%) | B (50≤percent of modification <70%) |  |  | 
C=CC(=O)N1CCC(N(C)c2nc(OC[C@@H]3CC4(CC4)CN3C)nc3c(F)c(-c4ccc(F)c5sc(N)c(C#N)c45)ccc23)[C@H]1COC (stereo partly drawn) [Compound 433] | A (percent of modification ≥70%) | A (percent of modification ≥70%) | A (percent of modification ≥70%) |  |  | 
C=CC(=O)N1CCC(N(C)c2nc(OC[C@@H]3CCCN3C)nc3c(F)c(-c4ccc(F)c5sc(N)c(C#N)c45)c(Cl)cc23)[C@H]1COC (stereo partly drawn) [Compound 416] | A (percent of modification ≥70%) | A (percent of modification ≥70%) | A (percent of modification ≥70%) |  |  | 
C=CC(=O)N1CCC(N(C)c2nc(OC[C@@H]3CC4(CC4)CN3C)nc3c(F)c(-c4ccc(F)c5sc(N)c(C#N)c45)c(Cl)cc23)[C@H]1C (stereo partly drawn) [Compound 448] | D (percent of modification <10%) | A (percent of modification ≥70%) | D (percent of modification <10%) |  |  | 
C=CC(=O)N1CCC(N(C)c2nc(OC[C@@H]3CCCN3C)nc3cc(-c4ccc(F)c5sc(N)c(C#N)c45)c(F)cc23)[C@H]1C (stereo partly drawn) [Compound 417] | A (percent of modification ≥70%) | A (percent of modification ≥70%) | A (percent of modification ≥70%) |  |  | 
C=CC(=O)N1CC[C@H](N(C)c2nc(OC[C@@]34CCCN3C[C@H](F)C4)nc3c(F)c(-c4ccc(F)c5sc(N)c(C#N)c45)c(C(F)(F)F)cc23)[C@@H]1C (single isomer, unassigned) [Compound 472] | C (10%≤percent of modification <50%) | A (percent of modification ≥70%) | B (50≤percent of modification <70%) |  |  | 
C=CC(=O)N1CC[C@@H](N(C)c2nc(OC[C@@]34CCCN3C[C@H](F)C4)nc3cc(-c4ccc(F)c5sc(N)c(C#N)c45)c(F)cc23)[C@H]1C [Compound 390, 4-(4-((1-acryloyl-2-methylpyrrolidin-3-yl)(methyl)amino)-6-fluoro-2-(((2R,7aS)-2-fluorotetrahydro-1H-pyrrolizin-7a(5H)-yl)methoxy)quinazolin-7-yl)-2-amino-7-fluorobenzo[b]thiophene-3-carbonitrile] | A (percent of modification ≥70%) | A (percent of modification ≥70%) | A (percent of modification ≥70%) |  |  | 
C=CC(=O)N1CCC(N(C)c2nc(OCCO)nc3c(F)c(-c4ccc(F)c5sc(N)c(C#N)c45)ccc23)[C@H]1C (stereo partly drawn) [Compound 468] | D (percent of modification <10%) | C (10%≤percent of modification <50%) | D (percent of modification <10%) |  |  | 
C=CC(=O)N1CC[C@@H](N(C)c2nc(OC[C@@]34CCCN3C[C@H](F)C4)nc3c(F)c(-c4ccc(F)c5sc(N)c(C#N)c45)c(C(F)(F)F)cc23)[C@H]1C (single isomer, unassigned) [Compound 434] | A (percent of modification ≥70%) | A (percent of modification ≥70%) | A (percent of modification ≥70%) |  |  | 
C=CC(=O)N1CC[C@H](N(C)c2nc(OC[C@@]34CCCN3C[C@H](F)C4)nc3c(F)c(-c4ccc(F)c5sc(N)c(C#N)c45)c(C(F)(F)F)cc23)[C@@H]1C (single isomer, unassigned) [Compound 473] | D (percent of modification <10%) | C (10%≤percent of modification <50%) | C (10%≤percent of modification <50%) |  |  | 
C=CC(=O)N1CC[C@@H](N(C)c2nc(OC[C@@]34CCCN3C[C@H](F)C4)nc3c(F)c(-c4ccc(F)c5sc(N)c(C#N)c45)c(C(F)(F)F)cc23)[C@@H]1C [Compound 469] | A (percent of modification ≥70%) |  |  | < 500 nM |  | 
C=CC(=O)N1CCC(N(C)c2nc(OC[C@@H]3CCCN3C)nc3cc(-c4ccc(F)c5sc(N)c(C#N)c45)c(F)cc23)[C@H]1COC (stereo partly drawn) [Compound 441] | B (50≤percent of modification <70%) | A (percent of modification ≥70%) | A (percent of modification ≥70%) |  |  | 
C=CC(=O)N1CCC(N(C)c2nc(OC[C@@H]3CCCN3C)nc3c(F)c(-c4ccc(F)c5sc(N)c(C#N)c45)c(Cl)cc23)[C@H]1C (stereo partly drawn) [Compound 419] | C (10%≤percent of modification <50%) | A (percent of modification ≥70%) | B (50≤percent of modification <70%) |  |  | 
C=CC(=O)N1CCC(N(C)c2nc(OCCOC)nc3c(F)c(-c4ccc(F)c5sc(N)c(C#N)c45)ccc23)[C@H]1C (stereo partly drawn) [Compound 466] | D (percent of modification <10%) | C (10%≤percent of modification <50%) | D (percent of modification <10%) |  |  | 
C=CC(=O)N1C[C@H](C)N(c2nc(OC[C@]34CCCN3C[C@@H](F)C4)nc3c(F)c(-c4ccc(F)c5sc(N)c(C#N)c45)c(C(F)(F)F)cc23)C[C@H]1C [Compound 334] | C (10%≤percent of modification <50%) |  |  | < 500 nM |  | 
C=CC(=O)N1CCC12CN(c1nc(OC[C@@H]3CCCN3C)nc3c(F)c(-c4ccc(F)c5sc(N)nc45)c(Cl)cc13)C2 [Compound 57] |  |  |  | > 20000 nM | A (percent of modification ≥70%) | D (percent of modification <10%)
C=CC(=O)N1CC(N(C)c2nc(OC[C@@H]3CC(F)(F)CN3C)nc3c(F)c(-c4ccc(F)c5sc(N)nc45)c(C(F)(F)F)cc23)C1 [Compound 181] |  | B (50≤percent of modification <70%) | D (percent of modification <10%) | 500 to 5000 nM |  | 
C=CC(=O)N1CCC(N(C)c2nc(OC[C@@H]3CCCN3C)nc3c(F)c(-c4ccc(F)c5sc(N)c(C#N)c45)ccc23)[C@H]1C (stereo partly drawn) [Compound 420] | A (percent of modification ≥70%) | A (percent of modification ≥70%) | A (percent of modification ≥70%) |  |  | 
CC#CC(=O)N1CCN(c2nc(OC[C@@H]3CC(F)(F)CN3C)nc3c(F)c(-c4ccc(F)c5sc(N)nc45)c(C(F)(F)F)cc23)CC1 [Compound 132] |  | C (10%≤percent of modification <50%) | D (percent of modification <10%) | > 20000 nM |  | 
